In patent US20230165829A1, “FLAVAGLINE DERIVATIVES FOR INHIBITION OF KRAS ONCOGENE ACTIVATION” (KHR BIOTEC GMBH, priority 2018, published 2023):

System: KRAS G12V
Assay: NanoBit assay of KRAS GTP-loading (KRAS / CRAF-RBD interaction) in HeLa cells
Settings: 100 nM compounds for 4 h, KRAS G12V transfected HeLa cells; similar results with KRAS WT + EGF (100 ng/ml, 30 min)

Structure (SMILES): COc1cc(OC)c2c(c1)O[C@@]1(c3ccc(Br)cc3)[C@H](c3ccccc3)C[C@H](NC=O)[C@@]21O
- inactivation of KRAS (inhibition of KRAS activation), relative luminescence vs DMSO: inactivation of KRAS

Structure (SMILES): COc1cc(OC)c2c(c1)O[C@@]1(c3ccc(Br)cc3)[C@H](c3cccc(F)c3)C[C@H](NC=O)[C@@]21O
- inactivation of KRAS (inhibition of KRAS activation), relative luminescence vs DMSO: inactivation of KRAS
